The values that follow come from publication PMC9926234 (Proceedings of the National Academy of Sciences of the …, 2023).

Protein sequences, listed by entry. Tags and fused reporters are not part of them. Lines headed by an entry give the natural chain unless they say otherwise; changes in a name come on top.
UniProt Q9Y530: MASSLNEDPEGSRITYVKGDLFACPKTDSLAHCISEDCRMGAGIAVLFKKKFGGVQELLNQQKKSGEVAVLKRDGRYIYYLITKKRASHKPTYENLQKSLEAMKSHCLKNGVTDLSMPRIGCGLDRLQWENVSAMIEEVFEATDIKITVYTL

This assay has as its target human macrodomain TARG1 (human, UniProt Q9Y530 1-152). Kind of assay: AlphaScreen or HTRF. Conditions: both partners purified.

For the molecule ARTKQTARKS [ADPr-conjugated biotin peptide ARTK(Bio)QTARK(Aoa-RADP)S], the binding result is “binds”.
